# The list shows a part of the results, in another mix than the full data. The source made the active and inactive calls.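 How the source made its calls: active means Hck-Nef kinase inhibition above about 50% (limit read from the data); inactive means inhibition below that limit.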
# The chains behind the UniProt entries cited, without tags or fusion partners. Where a name states a change or a piece, a line headed by the entry shows the natural chain unless it says otherwise.
# UniProt P08631: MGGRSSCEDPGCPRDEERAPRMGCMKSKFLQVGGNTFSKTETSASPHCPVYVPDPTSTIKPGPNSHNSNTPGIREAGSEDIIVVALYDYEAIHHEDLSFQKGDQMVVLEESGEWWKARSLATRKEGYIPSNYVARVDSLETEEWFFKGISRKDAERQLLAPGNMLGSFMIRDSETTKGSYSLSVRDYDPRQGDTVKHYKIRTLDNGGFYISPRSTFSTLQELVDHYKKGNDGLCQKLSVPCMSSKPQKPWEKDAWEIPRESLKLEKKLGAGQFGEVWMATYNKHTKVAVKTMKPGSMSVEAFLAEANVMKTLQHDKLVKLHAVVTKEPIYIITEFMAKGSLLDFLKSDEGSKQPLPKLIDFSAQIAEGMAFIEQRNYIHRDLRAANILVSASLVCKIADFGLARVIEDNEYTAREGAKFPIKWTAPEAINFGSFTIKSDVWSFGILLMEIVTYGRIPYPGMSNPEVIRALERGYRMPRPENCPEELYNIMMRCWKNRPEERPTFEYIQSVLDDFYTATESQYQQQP
# Molecular target: Tyrosine-protein kinase HCK (Homo sapiens) (UniProt P08631)
# Assay: inhibitors of Nef-activated human Hck kinase, primary screen, biochemical, Z-Lyte FRET, 384-well, Hck-YEEI (AID 463187);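 further: 0% = DMSO with Hck plus Nef and 100% = Hck alone without Nef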
# Conditions: Recombinant Hck-YEEI plus Nef, Z-Lyte FRET kinase assay; at 20 µM; stronger effect = higher value
row,SMILES,inhibition
1,CCN(CC)C(=S)SC(NC=O)C(Cl)(Cl)Cl (stereo not drawn),inactive: -0.1%
2,CC(C)NC(=O)NP(=O)(Oc1ccccc1)Oc1ccccc1,inactive: -6.65%
3,O=[N+]([O-])c1cc([N+](=O)[O-])c(-c2ccn[nH]2)s1,inactive: 8.12%
4,ClCCSc1nnc(-c2cccnc2)o1,inactive: 0.86%
5,CC(C)c1ccc(OP(=O)(Nc2ccccn2)Oc2ccccc2F)cc1 (stereo not drawn),inactive: -17.2%
6,Cc1ccc(OP(=O)(Nc2ccc([N+](=O)[O-])cn2)Oc2ccc(C)cc2)cc1,inactive: 7.15%
7,Cc1ccc2nc3c(c(C)c2c1)CC(C(Cl)Cl)S3 (stereo not drawn),inactive: 2.68%
8,O=[As](O)(c1ccc(O)cc1)c1ccccc1O,inactive: -14.3%
9,C[As](=O)(O)c1cccc(C(=O)O)c1,inactive: -2.63%
10,COc1ccc(N/C(=N/P(=O)(N2CCOCC2)N2CCOCC2)N2CCOCC2)cc1,inactive: 26.1%
11,COc1ccc2nc(NP(=O)(c3ccccc3)c3ccccc3)sc2c1,inactive: 14.9%
12,COc1cc(I)ccc1[As](=O)(O)O,inactive: 9.11%
13,Cc1c2c(nc3ccccc13)SC(C(Cl)Cl)C2 (stereo not drawn),inactive: 2.71%
14,O=C(OC1CN2CCC1CC2)C12CC3CC(CC(C3)C1)C2 (stereo not drawn),inactive: -1.73%
15,Cc1cc(=O)[nH]c(N[N+](=O)[O-])n1,inactive: 11.5%
16,CCC(C)N(CC(C)C)C(=S)SC(NC(C)=O)C(Cl)(Cl)Cl (stereo not drawn),inactive: 6.26%
17,CCOC(=O)c1ccc(NC(=O)C(C)(CCl)SC)cc1 (stereo not drawn),inactive: 17.1%
18,O=C(COc1ccccc1)OC1CN2CCC1CC2 (stereo not drawn),inactive: 1.16%
19,COP1(=S)c2c(C)nn(CCC#N)c2N=C(c2ccc(F)cc2)N1C (stereo not drawn),inactive: 1.23%
20,Cc1cc(SC(NC=O)C(Cl)(Cl)Cl)ncn1 (stereo not drawn),inactive: 9.62%
21,O=P(Nc1ccccn1)(c1cccc2ccccc12)c1cccc2ccccc12,inactive: -2.1%
22,O=[N+]([O-])c1ccc(Nc2ccc(Oc3ccc([N+](=O)[O-])cc3[N+](=O)[O-])cc2)c([N+](=O)[O-])c1,inactive: 6.38%
23,CCOC(=O)Nc1cccc([As](=O)(O)O)c1,inactive: 0.78%
24,Cc1cc(SC(NC(=O)c2ccccc2)C(Cl)(Cl)Cl)nc(C(C)C)n1 (stereo not drawn),inactive: -0.375%
25,CCOC(=O)Nc1ccc([As](=O)(O)O)c(O)c1,inactive: 4.26%
26,Nc1cccc([As](=O)(O)c2ccccc2)c1,inactive: 6.19%

row,SMILES,inhibition
1,O=P1(Nc2ccc(Br)cn2)COc2ccccc2OC1,inactive: 0.12%
2,Cc1ccc(OCC(=O)OC2CN3CCC2CC3)cc1 (stereo not drawn),inactive: -0.778%
3,O=[As](O)(c1cccs1)c1cccs1,inactive: 20.2%
4,O=P1(Nc2ncccn2)COc2ccccc2OC1,inactive: 2.07%
5,CN(C)C1(CNC(=O)c2ccc(S(C)(=O)=O)cc2)CCCCC1,inactive: 2.84%
6,O=C(/C=C/c1ccccc1)OC1CN2CCC1CC2 (stereo not drawn),inactive: -12.7%
7,Cc1nn(-c2ccccc2)c2c1P(=O)(N1CCOCC1)N(C)C(c1ccccc1)=N2 (stereo not drawn),inactive: -0.304%
8,CC1CCC(C(C)C)C(OP(=O)(Nc2ccccn2)c2ccccc2)C1 (stereo not drawn),inactive: 23.3%
9,CC(C)/C=N\N=C(\N)N[N+](=O)[O-],inactive: 0.179%
10,O=[As](O)(c1ccccc1Br)c1ccccc1Br,inactive: 9.81%
11,CC1(CBr)Cn2c(nc3ccccc3c2=O)S1 (stereo not drawn),inactive: 5.98%
12,Clc1n[nH]nc1-c1nn[nH][15n]1,inactive: 0.161%
13,CC(C)(C)C(=O)NC(Sc1ncccn1)C(Cl)(Cl)Cl (stereo not drawn),inactive: 10.9%
14,O=P1(Nc2ccccn2)COc2ccccc2OC1,inactive: 0.296%
15,CCOP(=O)(Nc1ccc(C)cn1)OCC,inactive: 18.1%
16,COc1cc(C2NCCC3(OCCO3)C2(C)C)cc(OC)c1OC (stereo not drawn),inactive: -2.47%
17,CCOP(=O)(Nc1cccc2ccccc12)OCC,inactive: -9.44%
18,Cc1ccc(NCCc2c([N+](=O)[O-])cc([N+](=O)[O-])cc2[N+](=O)[O-])cc1,inactive: 9.75%
19,Nc1cccc2c([As](=O)(O)O)cccc12,inactive: -6.35%
20,CCCOP(=S)(Nc1nc(N)cc(=O)[nH]1)OCCC,inactive: 16.4%
21,O=[As](O)(c1cccc(O)c1)c1cccc(O)c1,inactive: 3.13%
22,Cc1cccc(OCC(=O)OC2CN3CCC2CC3)c1 (stereo not drawn),inactive: -0.499%
23,O=C(OC1CN2CCC1CC2)c1ccc(Cl)cc1 (stereo not drawn),inactive: 14.9%
24,COc1cc(C(=O)NCC2(N3CCOCC3)CCCCC2)cc(Cl)c1OC(C)C,inactive: 27.4%
25,O=[As](O)(O)c1cccnc1,inactive: 2.39%
26,CCOP1(=S)c2c(C)nn(CCC#N)c2N=C(c2ccc(F)cc2)N1C (stereo not drawn),inactive: 0.982%

row,SMILES,inhibition
1,CN(C(=O)Cc1ccccc1)[C@@H]1CC[C@]2(CCCO2)C[C@H]1N1CCCC1,inactive: 28.7%
2,O=[N+]([O-])c1ccc2c(c1)nnn2O,inactive: -18%
3,NC(=O)Nc1ccc([As](=O)(O)O)cc1,inactive: 29.6%
4,O=C(O)COc1ccc([As](=O)(O)O)cc1[N+](=O)[O-],inactive: -6.57%
5,Nc1ccccc1[As](=O)(O)c1ccccc1,inactive: 5.8%
6,CCOP1(=S)c2c(C)nn(CCC#N)c2N=C(c2ccccc2F)N1C (stereo not drawn),inactive: 1.21%
7,O=P(Nc1nccs1)(c1ccccc1)c1nc2ccccc2s1 (stereo not drawn),inactive: -12.6%
8,O=P(Nc1nccs1)(Oc1ccccc1)Oc1ccccc1,inactive: 34.6%
9,CS(=O)(=O)c1cc([N+](=O)[O-])c2no[n+]([O-])c2c1,inactive: -162%
10,Cc1ccccc1OP(=O)(Nc1ccccn1)Oc1ccccc1C,inactive: 20.1%
11,CN(C)C(=O)Oc1noc2ccccc12,inactive: 14%
12,O=c1c2cc([N+](=O)[O-])ccc2[nH]c2c([N+](=O)[O-])cc([N+](=O)[O-])cc12,inactive: 25.2%
13,CCC(=O)N1C2C3N(C(=O)CC)C1C1N(C(=O)CC)C(C(N1C(=O)CC)N3C(=O)CC)N2C(=O)CC,inactive: 0.57%
14,COC(=O)c1cc2c(s1)N=C(c1ccccc1)N(C)P2(=O)N1CCOCC1 (stereo not drawn),inactive: 1.59%
15,CC(=O)NC(SC(=S)N(CC(C)C)CC(C)C)C(Cl)(Cl)Cl (stereo not drawn),inactive: 1.87%
16,Cc1ccc(OP(=O)(Nc2ccccn2)Oc2ccc(C)cc2)cc1,inactive: 15.8%
17,c1ccc(-c2nn[nH]n2)c(-c2nn[nH]n2)c1,inactive: 20.1%
18,Cc1ccc(NP(=O)(Oc2cccc(C)c2)Oc2cccc(C)c2)nc1,inactive: 6.43%
19,CCOC(=O)NC(Sc1ccccc1)C(Cl)(Cl)Cl (stereo not drawn),inactive: 1.03%
20,O=C(NC1CCS(=O)(=O)C1)NP(=S)(Oc1ccccc1)Oc1ccccc1 (stereo not drawn),inactive: 2.52%
21,CCNC(=S)/N=C(\N)N[N+](=O)[O-],inactive: 1.03%
22,CC(=O)Nc1ccc([As](=O)(O)O)c(O)c1,inactive: 5.5%
23,CC(=O)Nc1ccc(Oc2c([N+](=O)[O-])cc([N+](=O)[O-])cc2[N+](=O)[O-])cc1,inactive: 25.1%
24,C[C@@H]1C=CCP(=O)(Oc2ccccc2)O1 (stereo partly drawn),inactive: 25.2%
25,C[C@H]1OP(=O)(Oc2ccccc2)C[C@@H]2O[C@@H]21 (stereo partly drawn),inactive: 30.8%
26,CC(C)(C)C(=O)NC(Sc1ccccc1)C(Cl)(Cl)Cl (stereo not drawn),inactive: -7.88%

row,SMILES,inhibition
1,O=P1(Nc2nc3ccc(Cl)cc3s2)COc2ccccc2O1 (stereo not drawn),inactive: -0.716%
2,CCOc1ccc(C2=NCC(CBr)S2)cc1 (stereo not drawn),inactive: 8.4%
3,c1nnnn1CCn1cnnn1,inactive: -0.788%
4,O=P(Nc1nccs1)(c1ccccc1)c1ccccc1,inactive: 1.01%
5,CC(C)C(=O)NC(Sc1ccccc1)C(Cl)(Cl)Cl (stereo not drawn),inactive: 6.01%
6,O=C(OC1CN2CCC1CC2)c1cccc(Cl)c1 (stereo not drawn),inactive: 0.644%
7,Nc1ccc([As](=O)(O)c2ccc([N+](=O)[O-])cc2)cc1,inactive: 1.07%
8,C(Cc1nn[nH]n1)Cc1nn[nH]n1,inactive: 5.14%
9,O=[As](O)(c1ccccc1)c1ccc(O)cc1,inactive: 9.15%
10,CC(=O)NC(SC(=S)N(C)C)C(Cl)(Cl)Cl (stereo not drawn),inactive: 5.24%
11,O=[N+]([O-])c1ncn(CCn2cnc([N+](=O)[O-])n2)n1,inactive: 17.2%
12,O=P(Nc1nc2ccccc2s1)(c1ccccc1)c1ccccc1,inactive: -1.16%
13,C[C@H]1OP(=O)(Oc2ccccc2)[C@H](O)[C@H](O)[C@H]1N=[N+]=[N-] (stereo partly drawn),inactive: 24.9%
14,O=P(Nc1ccccn1)(c1ccc(Br)cc1)c1ccc(Br)cc1,inactive: -9.35%
15,O=C(O)CNc1ccc([As](=O)(O)O)cc1,inactive: 8.59%
16,O=[N+]([O-])c1cccc(NC2=NCC(CBr)S2)c1 (stereo not drawn),inactive: -5.08%
17,O=[N+]([O-])c1ncn(CCn2ncnc2[N+](=O)[O-])n1,inactive: 19%
18,CC(C)(C)C(=O)NC(Sc1ccncn1)C(Cl)(Cl)Cl (stereo not drawn),inactive: -8.77%
19,O=C(Nc1cc([As](=O)(O)O)ccc1O)c1ccccc1,inactive: 8.55%
20,CC1CCN(C(=O)Oc2c(Cl)cc(Cl)c3cccnc23)CC1,inactive: -0.172%
21,CC(C)=N/N=C(\N)N[N+](=O)[O-],inactive: 21.9%
22,CN(C)C(=O)OCCc1n(C)cc[n+]1C,inactive: 0.794%
23,CCN(/C(=N/P(=O)(N1CCOCC1)N1CCOCC1)N1CCOCC1)c1ccc(OC)cc1,inactive: 24.9%
24,Nc1ccc([As](=O)(O)c2ccc(N)cc2)cc1,inactive: 12.1%
25,C[N+]1=C2C=CC=CC=C2SC12C([N+](=O)[O-])=CC([N+](=O)[O-])=C[C-]2[N+](=O)[O-] (stereo not drawn),inactive: 5.46%

# Reference: PubChem BioAssay AID463187 (University of Pittsburgh Molecular Library Screening Center, 2010)
